Inconclusive results and toxic doses are left out.
Test system: AKR/Lw mice, AKR lymphoma ip, median survival T/C
Test: NCI In Vivo Anticancer Drug Screen. Data for tumor model Lymphoma AKR (Transplanted) (intraperitoneal) in AKR/Lw mice
Conditions: endpoint: median survival time, vehicle: saline, higher = longer survival
Description: The antitumor activity of compounds was measured in mice bearing transplantable tumors. Survival or tumor size were measured and the results are expressed as the measurement made in the treated group (T) divided by the measurement made in the vehicle treated control group (C). The tumor model used in this assay is Lymphoma AKR (Transplanted) (intraperitoneal) in AKR/Lw mice

## CN(Cc1cnc2nc(N)nc(N)c2n1)c1ccc(C(=O)N[C@@H](CCC(=O)O)C(=O)O)cc1
dose: 0.75 mg/kg/injection, schedule: Q01DX009 (ip)
  T/C: 121 % of control
dose: 12.0 mg/kg/injection, schedule: Q04DX004 (ip)
  T/C: 153 % of control
dose: 20.0 mg/kg/injection, schedule: Q01DX001 (ip)
  T/C: 121 % of control
